The values that follow come from US20020068814A1.

As usually defined, the IC50 is the concentration that inhibits the measured activity by half. Read a high IC50 as weaker potency.

For the assay, the target named is CGRP receptor of pig coronary artery (pig). Briefly: displacement of 125I-[His10]-h-αCGRP from pig coronary artery membranes.

B1: h-α-CGRP (8-37) (peptide)
chain: VTHRLAGLLSRSGGVVKNNFVPTNVGSKAF
Take B1: the IC50 was found to be 14.4 nM.
